This is a selection: effects in other tests are not listed, and their absence says nothing.
How the values were obtained:
[1] = biological target: reuptake of serotonine (5-HT) in synaptosomes (Rattus norvegicus, UniProt P31652); experiment: Inhibition of 5-HT reuptake in synaptosomes; settings: read-out: 5-HT-uptake IC50, 3H-5-HT
Description: (§1) Compounds of the invention may be tested for their ability to inhibit reuptake of the monoamines dopamine, noradrenaline and serotonin in synaptosomes e.g. such as described in WO 97/30997 (NeuroSearch A/S). Based on the balanced activity observed in these tests the compound of the invention is considered useful for the treatment, prevention or alleviation of a disease or a disorder or a condition of a mammal, including a human, which disease, disorder or condition is responsive to inhibition of monoamine neurotransmitter re-uptake in the central nervous system.
(§2) Compounds were tested for their ability to inhibit the reuptake of the monoamine neurotransmitters dopamine (DA) noradrenaline (NA) and serotonine (5-HT) in synaptosomes as described in WO 97/16451.
(§3) The test values are given as IC50 (the concentration (μM) of the test substance which inhibits the specific binding of ^3H-DA, ^3H-NA, or ^3H-5-HT by 50%).

Protein sequences, listed by entry. Tags and fused reporters are not part of them. Residues count along the entry.
UniProt P31652, whole entry: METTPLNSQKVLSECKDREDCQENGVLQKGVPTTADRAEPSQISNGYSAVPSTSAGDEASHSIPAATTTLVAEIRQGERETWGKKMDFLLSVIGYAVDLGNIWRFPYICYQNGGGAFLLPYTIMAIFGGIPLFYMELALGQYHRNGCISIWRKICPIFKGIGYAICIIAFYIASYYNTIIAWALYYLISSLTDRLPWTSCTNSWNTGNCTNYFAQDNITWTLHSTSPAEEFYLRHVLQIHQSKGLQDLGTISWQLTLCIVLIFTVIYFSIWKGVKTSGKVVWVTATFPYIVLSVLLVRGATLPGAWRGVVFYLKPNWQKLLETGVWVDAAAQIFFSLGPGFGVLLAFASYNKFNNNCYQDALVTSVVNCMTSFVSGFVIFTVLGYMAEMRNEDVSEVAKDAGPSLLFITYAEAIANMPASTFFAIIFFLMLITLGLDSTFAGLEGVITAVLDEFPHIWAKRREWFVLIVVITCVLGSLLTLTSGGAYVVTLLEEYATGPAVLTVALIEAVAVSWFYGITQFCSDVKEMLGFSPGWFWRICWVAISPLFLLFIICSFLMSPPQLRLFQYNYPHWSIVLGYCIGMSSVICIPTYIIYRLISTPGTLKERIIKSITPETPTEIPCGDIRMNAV
UniProt P23977, whole entry: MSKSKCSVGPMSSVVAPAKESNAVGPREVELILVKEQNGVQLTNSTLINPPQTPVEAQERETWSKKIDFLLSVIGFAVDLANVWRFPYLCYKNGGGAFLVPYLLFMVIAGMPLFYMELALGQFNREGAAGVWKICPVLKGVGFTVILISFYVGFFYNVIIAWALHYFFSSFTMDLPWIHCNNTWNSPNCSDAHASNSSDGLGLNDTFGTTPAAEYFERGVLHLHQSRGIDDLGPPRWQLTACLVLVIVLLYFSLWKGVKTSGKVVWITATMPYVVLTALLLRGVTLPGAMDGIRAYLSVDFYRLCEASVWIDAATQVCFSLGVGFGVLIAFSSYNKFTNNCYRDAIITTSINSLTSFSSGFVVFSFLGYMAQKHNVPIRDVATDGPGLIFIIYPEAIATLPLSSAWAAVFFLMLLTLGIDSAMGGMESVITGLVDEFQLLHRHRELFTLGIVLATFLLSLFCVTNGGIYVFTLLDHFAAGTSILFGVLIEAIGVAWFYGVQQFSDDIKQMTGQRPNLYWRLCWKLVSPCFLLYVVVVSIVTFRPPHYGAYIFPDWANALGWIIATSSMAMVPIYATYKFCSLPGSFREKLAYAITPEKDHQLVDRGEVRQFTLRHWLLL
UniProt Q63380, 1-617: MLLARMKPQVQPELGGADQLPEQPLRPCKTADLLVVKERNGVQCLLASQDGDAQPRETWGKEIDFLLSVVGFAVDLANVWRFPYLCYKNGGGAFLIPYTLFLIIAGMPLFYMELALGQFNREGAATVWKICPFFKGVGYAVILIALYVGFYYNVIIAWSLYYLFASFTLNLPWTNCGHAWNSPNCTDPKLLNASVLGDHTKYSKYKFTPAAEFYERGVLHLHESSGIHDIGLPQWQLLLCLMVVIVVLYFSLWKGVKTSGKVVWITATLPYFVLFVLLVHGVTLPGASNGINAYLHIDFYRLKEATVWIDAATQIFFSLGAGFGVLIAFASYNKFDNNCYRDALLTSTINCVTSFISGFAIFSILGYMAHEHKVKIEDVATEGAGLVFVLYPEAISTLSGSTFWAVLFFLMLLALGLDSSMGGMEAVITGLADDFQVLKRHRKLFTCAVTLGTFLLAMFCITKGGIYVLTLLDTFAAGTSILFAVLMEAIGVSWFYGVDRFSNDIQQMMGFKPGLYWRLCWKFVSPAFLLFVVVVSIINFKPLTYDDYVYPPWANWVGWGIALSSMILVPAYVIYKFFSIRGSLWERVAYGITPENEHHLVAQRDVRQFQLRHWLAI

[2] = biological target: reuptake of dopamine (DA) in synaptosomes (Rattus norvegicus, UniProt P23977); experiment: Inhibition of DA reuptake in synaptosomes; settings: read-out: DA-uptake IC50, 3H-DA
Description: as §1, §2, §3

[3] = biological target: reuptake of noradrenaline (NA) in synaptosomes (Rattus norvegicus, UniProt Q63380); experiment: Inhibition of NA reuptake in synaptosomes; settings: read-out: NA-uptake IC50, 3H-NA
Description: as §1, §2, §3

Row | SMILES | IC50 [1] [nM] | IC50 [2] [nM] | IC50 [3] [nM]
1 | CCC(=O)N(c1ccc(Cl)c(Cl)c1)C1CCNCC1 | 7.2 | 380 | 2
2 | CCC(=O)N(c1ccc(Cl)c(OC)c1)C1CCNCC1 | 7 | > 1000 | 2.4
